Results published in patent US20050065064A1, “Identification of allosteric peptide agonists of CXCR4” (priority 2002, published 2005).

By UniProt entry, the sequences of proteins in these tests, tags left out.
UniProt P61073, whole entry: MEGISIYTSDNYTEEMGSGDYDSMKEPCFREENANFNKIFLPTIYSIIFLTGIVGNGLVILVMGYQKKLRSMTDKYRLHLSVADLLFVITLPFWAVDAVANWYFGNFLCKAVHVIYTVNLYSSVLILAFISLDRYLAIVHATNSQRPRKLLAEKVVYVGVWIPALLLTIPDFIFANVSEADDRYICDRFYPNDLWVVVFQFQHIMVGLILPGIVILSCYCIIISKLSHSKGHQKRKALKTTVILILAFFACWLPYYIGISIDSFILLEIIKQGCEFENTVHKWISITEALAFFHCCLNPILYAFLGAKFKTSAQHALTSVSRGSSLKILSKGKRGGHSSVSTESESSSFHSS

Columns and labels:
[1] = tested on: CCRF-CEM cells; assay: Chemotaxis assay (transwell) on CCRF-CEM cells; assay type: cell-based, human
Method: The CCRF-CEM acute lymphoblastic leukemia cell line was previously shown to express CXCR4 and to migrate in response to SDF-1α (31). The procedure involved cells that were ˜70-80% confluent and were centrifuged at 1000 rpm for 5 min and resuspended at a concentration of ˜10^7 cells/ml. The transwell system (Corning-Costar^R) was used for quantifying the chemotactic response. Six hundred μl of solution with different concentrations of a CXCR4 agonist were added to the bottom of the wells of 24-well culture plates. One hundred μl of the cell suspension was aliquoted in the transwell cups and inserted in the wells. The bottom of the cups is layered with a membrane that has a 5 μm pore size and allows cell movement towards the higher concentration of chemoattractant. The cells were incubated for 2h at 37° C., after which the migrated cells were collected and counted with an electronic particle counter (Coulter^R). In cases where the effect of neutralization by CXCR4 monoclonal antibodies or antagonists was examined, the inhibitor was added to the upper compartment along with the cells.

[2] = biological target: T1, CXCR4 (Homo sapiens, UniProt P61073); assay: Flow cytometry of CXCR4 surface levels (12G5 indirect staining); assay type: cell-based; conditions: FIG. 8D, 8E
Method: Flow cytometric analysis of cell subpopulations was performed using a FACS Vantage flow cytometer (Becton-Dickinson Immunocytometry Systems, San Jose, Calif.) for detection of CXCR4 surface expression with the 12G5 monoclonal antibody. An indirect staining protocol was used. Briefly, after a 90 min incubation with various agents, the cells were washed and resuspended in PBS. Nonspecific (Fc-mediated) binding was blocked using purified rat IgG. The primary antibody (12G5, a mouse IgG2a antibody) was added at 1 μg/ml for 45 min. After centrifugation the cells were resuspended in PBS and the secondary antibody (FITC-linked rat anti-mouse IgG2a) was added at 10 μg/ml for 45 min. The cells were fixed with 2% formaldehyde (in PBS) and used within 2 days for data acquisition. Mouse IgG2a was used as an isotype control. For the fluorescence measurements the cells were excited at 488 nm. The FITC fluorescence was collected through a 530/30 nm band pass filter. A minimum of 15,000 cells were examined for each sample. Analysis of data was performed using the CellQuest software (Becton-Dickinson).

[3] = biological target: T1, CXCR4; assay: β-galactosidase assay in yeast expressing CXCR4 (FUS1-lacZ reporter); assay type: cell-based; set-up: The plasmid Cp4181 contains the CXCR4 gene under the control of the constitutive phosphoglycerate kinase (PGK1) promoter; expressed in transfected cells; host or cells: Saccharomyces cerevisiae CY12946 derivatives YAS2 / YAS3 (plasmid Cp4181)
Excerpt: The initial S. cerevisiae strain was CY12946 (MATα FUS1p-HIS3 GPA1Gαi2(5) canI farIΔI442 his3 leu2 sst2Δ2 ste14::trp1::LYS2 ste3Δ1156 tbt1-1 trp1 ura3) (23). Except for the specific chimeric Ga subunit expressed, CY12946 is genetically similar to CY1141, reported in Klein et al. (18), with two differences. First, the two strains express different Gα subunits. Specifically, CY12946 expresses a chimeric Gα subunit (GPA1Gαi2(5)) in which the C-terminal 5 amino acids of the yeast Ga subunit, GPA1, are replaced by the C-terminal 5 residues of Gαi2. In contrast, as described by Klein et al. (18), CY1141 expresses a chimeric Ga subunit (GPA1(41)Gαi2) in which the N-terminal 33 residues of Gαi2 are replaced by the 41 N-terminal residues of GPA1. We have used CY12946 in the current report because GPA1Gαi2(5) is more efficient than GPA1(41)Gαi2 in coupling CXCR4 to the pheromone response pathway. The use of GPA1Gαi2(5) necessitated deletion of SST2, which down-regulates the pheromone response pathway by accelerating the GTPase activity of GPA1. Thus, the second difference between CY12946 and CY1141 is the presence of an sst2 deletion allele in CY12946. All plasmids were 2μ-derived and contained a REP3 element for autonomous replication in S. cerevisiae and AmPR for selection in Escherichia coli. […]

- EC50 ([1]; CCRF-CEM cells (FIG. 4A, 4B), read-out: apparent EC50, chemotaxis): > 100 µM
- concentration dependence of the effect on CXCR4 surface levels [2]: concentration-dependent
- resistance of β-galactosidase activity to AMD3100 ([3]; peptide-expressing yeast clones): resistance to AMD3100
SMILES: CSCC[C@H](NC(=O)[C@@H](NC(=O)[C@H](CO)NC(=O)[C@@H](N)CCCNC(=N)N)C(C)C)C(=O)N[C@@H](CC(C)C)C(=O)N[C@@H](CO)C(=O)N[C@@H](Cc1ccc(O)cc1)C(=O)N[C@@H](CCCNC(=N)N)C(=O)N[C@@H](CS)C(=O)N1CCC[C@H]1C(=O)N[C@@H](CS)C(=O)N[C@@H](CCCNC(=N)N)C(=O)N[C@@H](Cc1ccccc1)C(=O)N[C@@H](Cc1ccccc1)C(=O)N[C@@H](CCC(=O)O)C(=O)N[C@@H](CO)C(=O)N[C@@H](Cc1c[nH]cn1)C(=O)O [RSVM]
- agonist character in chemotaxis (chemotactic index relative to SDF-Fc) ([1]; CCRF-CEM cells): weak partial agonist
- lowering of chemotactic index on co-stimulation with SDF-Fc versus SDF-Fc alone ([1]; CCRF-CEM cells (FIG. 4C)): about 30%
- chemotaxis in the presence of the two peptide agonists ASLW and RSVM ([1]; CCRF-CEM cells (FIG. 4E)): additive
- effect of antibody 12G5 on chemotactic activity of the agonist ([1]; CCRF-CEM cells (FIG. 6A, 6B, 7D)): very small effect
- effect of AMD3100 on chemotactic activity of the agonist ([1]; CCRF-CEM cells, AMD3100 up to 100 μg/ml (~115 μM)): Strong resistance to inhibition
- effect of T140 on chemotactic activity of the agonist ([1]; CCRF-CEM cells, T140 up to concentrations comparable to the agonists): does not inhibit
- effect of antibody 44717.111 on chemotactic activity of the agonist ([1]; CCRF-CEM cells, up to 50 μg/ml for the peptides, ten-fold lower for SDF-Fc): neither RSVM- nor ASLW-mediated chemotactic activity is significantly affected
- β-galactosidase activity on endogenous expression of the peptide ([3]; yeast strains with or without CXCR4 (FIG. 3)): significant increase of β-galactosidase activity only in the strain that co-expresses CXCR4
